# Patent publication US20260382616A1, “TREATMENT METHODS FOR SUBJECTS WITH NON-SMALL CELL LUNG CANCER HAVING AN ABERRATION IN EGFR” (published 2026)
# How the values were obtained:
# [1] = tested on: mutant EGFRs L718Q+ex19del+T790M or L718Q+L858R+T790M; details: cell-based; cited from earlier work
# [2] = tested on: tumors expressing EGFR with exon 20 insertions (V769_D770insASV, D770_N771insSVD, H773_V774insNPH); details: cancer xenografts harboring EGFR ex20ins mutations; cited from earlier work
# EGFR = details: biochemical assay; cited from earlier work
# [3] = tested on: tumors expressing EGFR with exon 20 insertions (V769_D770insASV, D770_N771insSVD, H773_V774insNPH); test: In vivo antitumor efficacy, subcutaneous tumors expressing EGFR exon 20 insertions; details: nude mouse and/or nude rat
# [4] = tested on: mutant EGFRs with in-frame insertion mutations in exon 20; details: genetically engineered cell lines / nonclinical studies, cited from earlier work
# [5] = Crossing of the normal rodent blood-barrier (preclinical studies)
# H1975insSVD = H1975insSVD xenograft, TAS6417 and/or CBDCA/pemetrexed; details: for Tumor volume: mean
# [6] = tested on: recurrent or metastatic NSCLC harboring EGFR ex20ins mutations; test: Phase 1/2a study, antitumor activity; details: for Confirmed PR: RECIST v1.1; for Objective responses across dose levels: all doses tested
# [7] = tested on: mutant EGFRs with mutations in exon 18 or exon 21 (G719A, G719S, G719C, E709K, E709A, L861Q); details: cited from earlier work
# [8] = three patients with measurable target CNS lesions
smiles,measurement,setting,value
C=CC(=O)N[C@H]1C=C(C)c2c(-c3cnc4ccccc4c3)c3c(N)ncnc3n2C1,Inhibition of phosphorylation of L718Q combination mutants,[1],intensive cellular potency
same,Antitumor activity in vivo,[2],significant antitumor activity in vivo
same,Inhibition of in vitro phosphorylation activity,EGFR,inhibited the in vitro phosphorylation activity
same,Tumor growth inhibition and regression,[3],striking tumor growth inhibition and tumor regression effects in a dose-dependent manner
same,Inhibition of intracellular phosphorylation of mutant EGFRs (ex20ins),[4]; listed as CLN-081/TAS6417,potent inhibitor of ex20ins mutations
same,Inhibition of intracellular phosphorylation of mutant EGFRs (ex20ins),[4]; listed as zipalertinib,potently inhibited intracellular phosphorylation of mutant EGFRs
same,Crossing of normal rodent blood-barrier,[5],may not efficiently cross the normal rodent blood-barrier
same,Tumor volume,"H1975insSVD; Day 1, TAS6417 100 mg/kg/day po qd",192.4 mm^3
same,Tumor volume,"H1975insSVD; Day 15, TAS6417 100 mg/kg/day po qd",322.8 mm^3
same,Tumor volume,"H1975insSVD; Day 22, TAS6417 100 mg/kg/day po qd",846.5 mm^3
same,Tumor volume after 22 days,H1975insSVD; alone or in combination with CBDCA/pemetrexed,dramatically smaller tumor volume after 22 days
same,mPFS,"[6]; 65 mg BID or less, 95% CI, 5 to 13",8 months
same,Best response PD,[6]; 100 mg BID (N=39),1 (2.6) No. (%)
same,Best response SD,[6]; 100 mg BID (N=39),22 (56.4) No. (%)
same,Confirmed PR,[6]; 100 mg BID (N=39),16 (41) No. (%)
same,mPFS,"[6]; 100 mg BID, 95% CI, 5 to NC",12 months
same,"Response of CNS target lesion, second patient","[6]; 100 mg, after 1 year on treatment",stable disease both systemically and intracranially
same,"Response of CNS target lesion, first patient","[6]; 100 mg, cycle 6, remained in PR at cycle 16",achieved both a systemic and intracranial response
same,Best response PD,[6]; 150 mg BID (N=11),1 (9.1) No. (%)
same,Best response SD,[6]; 150 mg BID (N=11),6 (54.5) No. (%)
same,Confirmed PR,[6]; 150 mg BID (N=11),4 (36.4) No. (%)
same,"Response of CNS target lesion, third patient","[6]; 150 mg, cycle 3",progressed with new lesions in the CNS
same,mDOR,[6]; 12 patients at <65 mg BID,had not been reached
same,mDOR,[6]; 16 patients at 100 mg BID,had not been reached
same,mPFS,"[6]; all dose levels, 95% CI, 6 to 12",10 months
same,mDOR,"[6]; all dose levels, 95% CI, 6 to NC",10 months
same,Objective responses across dose levels,[6],Objective responses were observed across the range of dose levels tested
same,Objective responses across dose levels,[6]; listed as Compound 1,Objective responses (ORs) were observed across the full range of Compound 1 doses tested
same,ORR,[6]; far-loop insertions (n=9),22%
same,Tumor regression,[6]; heavily previously-treated patients,rapid and durable tumor regression
same,Response rate,[6]; helical region mutations (2 patients),0%
same,PRs across ex20ins mutations,[6]; in vivo,PRs were observed across a spectrum of diverse epidermal growth factor receptor exon 20 insertion mutations
same,ORR,[6]; near-loop exon 20 insertions (n=52),41.5%
same,Best response PD,[6]; overall (N=73),3 (4.1) No. (%)
same,Best response SD,[6]; overall (N=73),42 (57.5) No. (%)
same,Confirmed PR,[6]; overall (N=73),28 (38.4) No. (%)
same,Median time to response,"[6]; range, 1.5-6.2",1.5 months
same,PRs,[6]; three patients previously treated with another ex20ins-directed TKI,two
same,CNS progression as best response,[6]; [8],one
same,Systemic and intracranial PR,[6]; [8],one
same,Systemic and intracranial SD,[6]; [8],one
same,Response rate,[6]; unreported mutation site group (10 patients),40%
same,Best response PD,[6]; ≤65 mg BID (N=23),1 (4.3) No. (%)
same,Best response SD,[6]; ≤65 mg BID (N=23),14 (60.9) No. (%)
same,Confirmed PR,[6]; ≤65 mg BID (N=23),8 (35) No. (%)
same,Inhibition of phosphorylation of mutant EGFRs,"[7]; G719A, G719S, G719C, E709K, E709A, L861Q",intensive cellular potency
same,Activity compared with erlotinib and osimertinib,"[7]; inhibition of phosphorylation, exon 18 / 21 mutants",higher than erlotinib and osimertinib

# Like-named read-outs stand apart in the source and are kept apart here.
